This is an account of results in BindingDB's records for doi:10.1021/bi400740x (North Dakota State University, 2013).

Experiment [1] deals with T1, Histone deacetylase 8 (Homo sapiens, UniProt Q9BY41).
T1 sequence (Q9BY41 whole entry): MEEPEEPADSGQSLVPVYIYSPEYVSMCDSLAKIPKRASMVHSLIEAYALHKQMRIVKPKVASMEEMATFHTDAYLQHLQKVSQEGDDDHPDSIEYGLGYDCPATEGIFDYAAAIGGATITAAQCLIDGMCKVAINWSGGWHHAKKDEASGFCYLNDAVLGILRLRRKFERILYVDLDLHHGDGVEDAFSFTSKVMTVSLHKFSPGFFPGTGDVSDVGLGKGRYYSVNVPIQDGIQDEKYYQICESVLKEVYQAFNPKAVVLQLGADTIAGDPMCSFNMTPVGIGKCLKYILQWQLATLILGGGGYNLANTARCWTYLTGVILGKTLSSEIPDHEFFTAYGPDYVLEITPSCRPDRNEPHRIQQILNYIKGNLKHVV
The experiment is described as follows: HDAC8 Inhibition Assay (kinetic method). The protocol: To determine the dissociation rate of the inhibitor, 1 µM HDAC8 and 20 µM inhibitor (syringe I) were mixed with 100 µM c-SAHA (syringe II) via the stopped-flow system. The fluorescence was measured at 325 nm with a 395 nm cutoff filter.

Experiment [2] deals with T1, Histone deacetylase 8. The experiment is described as follows: HDAC8 Inhibition Assay (spectrofluorometric titration). The conditions noted are these: pH 7.5.

On to `O=C(CCCCCCC(=O)Nc1ccccc1)NO` [Zolinza], for which the Kd on Histone deacetylase 8 [1] turned out to be 6.8 µM; at Histone deacetylase 8 [2], 1.2 µM.

What is called Kd is the concentration at which binding is half-saturated. High values mean lower affinity, low ones higher affinity.
